Apparent affinities of Ab-95 variants for a coronavirus HR2 peptide

Target peptide (SARS-CoV-2 spike, HR2 region): PDVDLGDISGINAS

Ab-95 is the parent antibody, in scFv form: VH, then the linker GGGGSGGGGSGGGGS, then VL. The heavy chain is unchanged in all variants.
VH: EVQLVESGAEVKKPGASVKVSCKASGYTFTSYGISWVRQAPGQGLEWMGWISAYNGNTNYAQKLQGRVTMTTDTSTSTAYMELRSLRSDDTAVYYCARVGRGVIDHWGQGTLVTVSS
VL: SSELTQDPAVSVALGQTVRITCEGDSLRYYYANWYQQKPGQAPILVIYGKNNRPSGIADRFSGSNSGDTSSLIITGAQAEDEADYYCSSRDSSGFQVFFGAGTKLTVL

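Variants in AAYL52 differ from the parent at up to three CDR positions; double and triple changes were sampled at random. In AlphaSeq, yeast of one mating type display the scFv and yeast of the other type display the target. Binding brings cells together so that they mate, and sequencing counts the barcode pairs among the diploids. Each replicate has its own calibration line, from reference interactions of the BCL2 family. There are three technical replicates.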

Variants are written as CDR1, CDR2 and CDR3 of the light chain (limits as in the source). Parent: EGDSLRYYYAN, GKNNRPS, SSRDSSGFQVF.
Scale: log10 of Kd in nM, estimated from mating counts; low values are strong binders.
Averages over replicates are reported, and they cover detected replicates only.
An entry "n.d." has no value in the source: the pair was not observed among the diploids in that replicate. This suggests poor binding but is not conclusive.
Nonspecific signal, from three strains lacking the peptide, appeared in 28% of pairings of library AAYL52, centred on 3.91 (5% of these signals below 2.90); values are not corrected for it. The control count says in how many pairings with the empty strains this scFv gave a signal, with their mean in brackets.

CDR-L1,CDR-L2,CDR-L3,"log10 Kd, replicates","mean, log10 nM",empty controls
NGDSLRYYYAN,GKNNRPS,SSRDSSKTQVF,2.53 2.56 2.49,2.53,3/9 (3.60)
EGDSLRYQYAN,GKNNRPG,SSRDSSRFQVF,1.50 0.85 0.82,1.05,5/9 (3.30)
EGDSLRYYYAN,YKNNRYS,SSRDSDGFQVF,5.23 n.d. n.d.,5.23,2/9 (3.46)
EGDSLRYYYAN,GKNNRPS,SLDDSSGFWVF,2.26 2.88 2.97,2.70,1/9 (3.20)
EGDSLRYYYAN,GKNNGPS,SSFDSSGFQVK,n.d. n.d. n.d.,n.d.,0/9
EGDSLRYSYGN,GKNNRPS,STRDSSGFQVF,2.06 1.84 1.91,1.94,2/9 (3.93)
EGDSLRYYYAN,GKRQRPS,SSRDSSGQQVF,3.57 3.28 2.79,3.21,4/9 (3.70)
ERDSLRYYYAN,GKNNRAS,SSRDYSGFQVF,2.91 2.55 2.19,2.55,3/9 (4.45)
EWDSLRYYYAN,GKTNRPS,SSRDSSGKQVF,3.37 n.d. n.d.,3.37,5/9 (3.79)
HGDSLRPYYAN,GKNMRPS,SSRDSSGFQVF,2.21 1.96 1.64,1.94,7/9 (4.34)
EGDSLLYYYAN,GKNNRPS,DSFDSSGFQVF,2.51 2.41 2.26,2.40,0/9
EGDSLRRYYAN,GSNNRPS,SSRDSSGFQVF,2.15 2.02 1.31,1.83,5/9 (3.23)
EGDILRYYYGN,GKNNRPS,SSRLSSGFQVF,3.66 n.d. 3.68,3.67,2/9 (3.64)
EGDSLQYYYAN,FKNNRPP,SSRDSSGFQVF,3.83 n.d. n.d.,3.83,5/9 (3.52)
IGDSLRYYYAN,GKNNRPS,SSRDSSGHQVW,3.15 3.26 n.d.,3.21,2/9 (3.62)
EFDSLRNYYAN,GKNNRPS,SSADSSGFQVF,4.72 3.72 n.d.,4.22,2/9 (3.63)
EGDSLRYYYAN,GKNARPS,SSRDSSGFQHF,n.d. 4.16 n.d.,4.16,3/9 (3.74)
EWQSLRYYYAN,GKNNRPS,SSRDSSGIQVF,n.d. 4.06 n.d.,4.06,3/9 (3.79)
EGDSLRYMYAN,GKNTRPS,SLRDSSGFQVF,2.34 2.52 2.23,2.36,2/9 (3.66)
EGDMLRYYYAN,GKNNRPS,SSSDWSGFQVF,3.95 3.17 2.52,3.21,0/9
ERDSLRYYYAN,GKNNYAS,SSRDSSGFQVF,3.23 2.26 3.55,3.01,7/9 (3.49)
EGDSLRPYYAN,GTNNRPS,SSRRSSGFQVF,2.61 n.d. 2.11,2.36,1/9 (3.88)
EGDSLRYYYAN,GKNNRPS,ASRDSSGTMVF,2.37 2.08 2.20,2.22,7/9 (3.97)
EGDSLRYYYAN,GKNNRMS,SSMDSSGFQVF,2.10 1.94 1.96,2.00,0/9
EGDSLRSYYAN,GWNNRPS,SSRDSSGFQEF,3.74 2.50 2.11,2.78,2/9 (3.27)
EGDMLRYYIAN,GKNNRPS,SSRDSSGFQQF,4.69 3.68 n.d.,4.18,3/9 (4.42)
EGDSLRYCYAN,GKNNRPS,SSMFSSGFQVF,2.81 2.67 1.83,2.44,4/9 (4.10)
EGDSLRYYYAN,NKINRPS,SSRDTSGFQVF,n.d. 3.86 n.d.,3.86,1/9 (3.40)
EGDYLRYYYAN,GKNNRPS,SSRDASGFQVS,2.48 2.95 2.53,2.65,3/9 (4.16)
EGDSLRYYLAN,GKNNRPS,SSRDSSPSQVF,3.93 3.03 n.d.,3.48,1/9 (3.86)
EGDSLRYYYAN,MKNNRPS,SSRDWSGPQVF,4.14 n.d. n.d.,4.14,1/9 (4.08)
EGDSLRYYYAN,GKNNRPS,SSRDGSYFQVF,2.87 3.06 2.22,2.72,4/9 (4.02)
VGDSLRYYYAN,GKDNRPS,SSRDSSGFQVF,1.96 2.03 1.69,1.89,3/9 (3.16)
EGDSLRYIYAN,GKFNRPS,SSRSSSGFQVF,3.84 3.83 4.15,3.94,3/9 (4.32)
EGDSLRYYYAN,GKNNRGG,SSRLSSGFQVF,n.d. n.d. n.d.,n.d.,0/9
EEDSLRYYYAN,GKHNRPS,SSRDSSGFQIF,4.02 5.93 n.d.,4.97,8/9 (4.07)
EPDQLRYYYAN,GKNNRPS,SSRDSSTFQVF,5.03 5.47 2.78,4.42,4/9 (4.25)
ELDSLRYYYAN,GKNNRPG,LSRDSSGFQVF,n.d. 4.21 n.d.,4.21,1/9 (3.82)
EGDSLRYCYAN,GKNNYPS,SSRDSSGFQVF,n.d. n.d. 4.19,4.19,5/9 (3.74)
EGDSLRYYYAN,CKNNRPS,SSRCSSGFQVF,4.31 n.d. n.d.,4.31,5/9 (4.44)
EGDSLRYYYAN,KKNNRPA,SSRDSSGFQVF,3.91 5.49 n.d.,4.70,1/9 (2.61)
EGDSLRYYTAN,GKLNRPS,DSRDSSGFQVF,n.d. n.d. 4.30,4.30,5/9 (3.54)
EGDSLRYQYAN,GKNNRPS,SSRDTSIFQVF,1.01 1.42 0.67,1.03,2/9 (3.59)
EGDSLRYYYAE,GMINRPS,SSRDSSGFQVF,4.44 3.85 n.d.,4.15,2/9 (4.38)
EGDSLRYYKAN,GKNNRPS,SSRPSSGFQWF,2.38 2.75 2.56,2.56,7/9 (3.30)
EGMSLRYYYAN,GKNNRPS,SMRDSSGFQVG,n.d. 3.31 3.16,3.23,4/9 (4.56)

A selection of 4 entries from above:

CDR-L1,CDR-L2,CDR-L3,"log10 Kd, replicates","mean, log10 nM",empty controls
EGDYLRYYYAN,GKNNRPS,SSRDASGFQVS,2.48 2.95 2.53,2.65,3/9 (4.16)
HGDSLRPYYAN,GKNMRPS,SSRDSSGFQVF,2.21 1.96 1.64,1.94,7/9 (4.34)
EGDSLRYYYAN,KKNNRPA,SSRDSSGFQVF,3.91 5.49 n.d.,4.70,1/9 (2.61)
EGDSLRYYYAN,GKNNRMS,SSMDSSGFQVF,2.10 1.94 1.96,2.00,0/9

From the AlphaSeq antibody data of Engelhart et al. 2022 (doi:10.1038/s41597-022-01779-4), copy in the FLAb collection.